# Molecular target: human GnRH receptors (Homo sapiens, UniProt P30968)
# The chains behind the UniProt entries cited, without tags or fusion partners.
# UniProt P30968, whole entry: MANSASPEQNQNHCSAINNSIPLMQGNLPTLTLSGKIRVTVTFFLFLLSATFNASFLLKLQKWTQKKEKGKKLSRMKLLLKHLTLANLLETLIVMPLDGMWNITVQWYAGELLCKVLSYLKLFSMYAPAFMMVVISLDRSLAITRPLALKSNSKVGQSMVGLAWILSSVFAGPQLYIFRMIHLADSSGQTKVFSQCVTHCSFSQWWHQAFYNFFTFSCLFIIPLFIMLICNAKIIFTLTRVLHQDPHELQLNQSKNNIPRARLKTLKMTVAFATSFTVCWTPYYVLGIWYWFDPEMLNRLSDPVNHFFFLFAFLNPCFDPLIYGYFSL
# Test: 125I-leuprorelin binding inhibition, membrane fraction of CHO cells expressing human GnRH receptors
# Details: for IC50: read-out: 125I-leuprorelin binding IC50 value (μM) human, Hill plot
Structure (SMILES),IC50 [µM],125I-leuprorelin binding inhibitory rate (%) human(20 μM) (compound 20 μM) [%]
CCOC(=O)c1cn(Cc2ccccc2OC)c2sc(-c3ccc(OC)cc3)c(C)c2c1=O,13,
CCOC(=O)c1cn(Cc2ccccc2OC)c2sc(-c3ccc(NC(C)=O)cc3)c(CN(C)Cc3ccccc3)c2c1=O,0.01,107
